## Binding of CDR-mutated scFvs to a peptide of the spike HR2 region

Binding partner: SARS-CoV-2 spike HR2 peptide, sequence PDVDLGDISGINAS.

Parent scFv Ab-14: VH joined to VL by the linker GGGGSGGGGSGGGGS. Changes lie in the light chain CDRs alone.
VH: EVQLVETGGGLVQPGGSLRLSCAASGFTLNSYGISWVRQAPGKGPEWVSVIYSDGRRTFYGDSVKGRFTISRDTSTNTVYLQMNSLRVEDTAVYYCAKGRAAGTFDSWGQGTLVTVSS
VL: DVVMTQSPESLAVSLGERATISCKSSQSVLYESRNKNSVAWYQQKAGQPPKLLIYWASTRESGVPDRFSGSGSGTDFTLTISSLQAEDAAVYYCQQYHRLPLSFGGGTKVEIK

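The starting antibody came from a phage panning campaign against this peptide. The variants were designed computationally from a first round of random CDR variants and then made and measured. Several design methods are mixed in this list. In AlphaSeq, yeast of one mating type display the scFv and yeast of the other type display the target. Binding brings cells together so that they mate, and sequencing counts the barcode pairs among the diploids. A regression on co-assayed BCL2-family reference pairs converts the normalised counts of each replicate to an apparent Kd. Mating was done six times.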

The parent's light chain CDRs are KSSQSVLYESRNKNSVA, WASTRES, QQYHRLPLS; each variant's own CDRs replace them letter for letter. Scale: log10 of Kd in nM, estimated from mating counts; low values are strong binders. Replicates are averaged; those with no signal do not enter the mean. A pair that was not seen in any replicate is written "nd"; this usually means weak binding, but a binder can also be missed.

CDR-L1	CDR-L2	CDR-L3	mean log10 Kd (nM)	replicates with signal	control signals
IISQSMIYESATHNSIA	QTSTREE	QQYHHLPLS	0.45	6 of 6	0 of 18
KVSQSTLYEDGNKNSVA	NASVRES	QQYHRLPLS	0.90	6 of 6	2 of 18
KLWAYLQGLERNMQNIA	DGIYRVT	QQYDRLPLS	1.33	6 of 6	1 of 18
KIRVNQYMQSEMESNIA	GTSVRHS	QQYFHLPLT	0.40	6 of 6	1 of 18
KVQQSMEYESRNKNSVA	EASDRES	QDYHRLPLW	1.63	6 of 6	1 of 18
KIGGVTNGISRNKNSVA	EQSTREK	QQYNRLPLS	0.25	6 of 6	1 of 18
KSSFSVLYESHNKNSVA	NASTRMS	QQYHRLPLS	1.30	6 of 6	0 of 18
HMSALTLGGMRARNSVA	QMTTREN	QQYDRLPLV	0.70	6 of 6	1 of 18
KSSQSVLREGGNGNSVA	EASTRES	QQYHLLPLS	0.95	6 of 6	0 of 18
TISQVMNTLERHGNNVA	DLENRED	QQYFRLPLS	0.90	3 of 6	0 of 18
LSPQSVLYESRNKNSVA	WASTRES	QQYHRIPLS	nd	0 of 6	0 of 18
KSGQGVLYESRNKNSVA	GASQRIS	QQYHRLPLS	-0.18	6 of 6	0 of 18
IFSQSVLMGNMTRNSVA	QASTRFN	QQYDRLPLI	nd	0 of 6	1 of 18
KSSPSGLYESRMKNSVA	HASTRES	QQYHRLPLS	0.29	6 of 6	0 of 18
IISQSMLYESATHNSIA	QTQTREE	QQYHHLPLS	1.42	6 of 6	0 of 18
KSSISQLEESRNKNSVA	EASTRES	QQYHRLPLS	-0.07	6 of 6	0 of 18
KLSFLQGGESRNKNSVA	DAGTRES	QQYHRLPLS	0.02	6 of 6	0 of 18
KIGLVTNGIQFSTNSVA	EQSTREN	QQYDRLPLS	1.01	6 of 6	0 of 18
KSSQSVLYLSENKNSVA	KASTRFS	QQYHRLPLS	1.23	6 of 6	1 of 18
KMSQSQLYETRNKNSVA	NGSTRES	QQYHRLPLS	0.22	6 of 6	1 of 18
KLPNSKLYESRMKNQVA	SASTREM	QQYHRLPLS	0.75	6 of 6	1 of 18
KFSQSVLYESRNKNSVA	NASTRED	QQYHRLPLS	-0.30	6 of 6	2 of 18
KLVQSVLYESRNKNSVA	NASQRLS	QQYHRLPLS	0.64	6 of 6	0 of 18
KSSQSYDYGDRNSNSVA	NASQREH	QQYHRLPLS	0.25	6 of 6	2 of 18
KLSMTHGMELINRNSVA	ELVTRMN	QQYNRLPLS	1.04	6 of 6	0 of 18
KSSQSVLYEWSNKNSVA	WASTRES	QQYHRLPLS	0.81	6 of 6	0 of 18
KSSQEVLYESRNKNSVA	EASTRES	QWYTRLPLS	0.48	6 of 6	0 of 18
KLQQSSLYESRNKNSVA	NASTRCS	QQYHRLPLS	-0.29	6 of 6	0 of 18
KSSQSVLYESMNKNSVA	WASTRES	QQYHRLPLS	1.91	6 of 6	1 of 18
KLSFSVLYGKRNKNSVA	QASQRCS	QQYHRLPLS	-0.12	6 of 6	0 of 18
KVSQSVLYESRMKNSVA	DASTRCS	QQYHRLPLV	-0.02	6 of 6	2 of 18
KSSQSVLYESRNANSVA	SASTRES	QQYHRLPLS	1.42	6 of 6	0 of 18
HFDQTEQEGIQDKNSVA	QGSQVAS	QHYSKLPLS	1.79	5 of 6	0 of 18

The remaining entries, values ahead:

mean log10 Kd (nM)	replicates with signal	control signals	CDR-L1	CDR-L2	CDR-L3
nd	0 of 6	0 of 18	ASSISVLYESRNKNSVA	WASTRES	MQYHRLPLH
0.03	6 of 6	0 of 18	KLSQSVKMMSRNKNSVA	DASTRES	QQYHRLPLS
-0.07	6 of 6	2 of 18	KLQQSVLYSSRNKNSVA	NASTRED	QQYHRLPLS
0.96	6 of 6	0 of 18	KIGQTLNQLMHQKNNVA	DLVMREQ	QQYHRLPLS
-0.01	6 of 6	3 of 18	QLLMATMQGTYNRNSVA	QAETRED	QSYHRLPLS
nd	0 of 6	0 of 18	KSSQSTPMESRNKNNVA	WASTRES	QQYHRLPLS
0.21	6 of 6	0 of 18	KLSMSYRYESQVKNSIA	EMSTREE	QSYHRLPLS
2.03	6 of 6	3 of 18	KVSEFMRGLMMRKDSIA	DNVTRNS	QQYDRLPLS
2.73	3 of 6	1 of 18	KSSQSVLYESRNKDSVA	WASTRES	QQYHRLPLS
2.14	6 of 6	1 of 18	MISDTGLHDSRMQNSVA	NNSTREA	QQYHRLPLS
-0.10	6 of 6	1 of 18	KLSQSELYESRNKNSVA	NASTRYS	QQYHRLPLS
0.72	6 of 6	0 of 18	MLSQMWAIGMKVSNSVA	QASTRFN	QQYERLPLM
-0.39	6 of 6	2 of 18	KSSWSVDYESRNKNSVA	DASTRES	QQYHRLPLS
0.04	6 of 6	2 of 18	KQSQSVLDESRNKNSVA	DASTRES	QQYHRLPLS
1.57	6 of 6	0 of 18	KSSQSVLYEGREKNSVA	WASTRES	QQYHRLPLS
1.72	6 of 6	0 of 18	MLGDVAFGLQRKQNSVA	DNSTREN	QQYDRLPLS
nd	0 of 6	1 of 18	KLGQGVLYESMNCNSYA	GASTRES	QQYHRLPSS
nd	0 of 6	0 of 18	KDSQSVLYEKRLCNSVA	WASTRES	QQGHRLPLS
-0.72	1 of 6	0 of 18	KMSHSVPQESRNKNSVA	HASTRES	QQYHRLLLS
1.78	2 of 6	0 of 18	KSSQSVWYESRNKNSVA	WASTREV	QQYHRLPLI
-0.14	6 of 6	1 of 18	ILSYSELYEDRNKNSVA	NASQREQ	QQYHRLPLS
0.98	6 of 6	1 of 18	KIGMQVTYESTVNNAIA	QMETREE	QQYHRLPLS
0.96	6 of 6	3 of 18	IISGSMLVESRNKNSVA	NAELREY	QHYDRLPLS
nd	0 of 6	0 of 18	KSSQSVLYEGRNKNSVA	WHSTRES	QQYHRLPLS
1.11	6 of 6	0 of 18	TIDDEMPNHGFHWNSIA	GVSTVKQ	QQYDRLPLS
1.43	1 of 6	0 of 18	MISQLMNMGQFAINSVA	QASIRNM	QQYDRLPLM
0.42	6 of 6	0 of 18	KSSQSVLYESRNKNSVA	EGSTRES	QQYHRLPLS
nd	0 of 6	0 of 18	KLSGFYRVETRNKNSVA	DNSTRES	QDYDRLPLS
2.78	2 of 6	2 of 18	TLGQSTMVESYNKNSVA	QAETREE	QDYHRLPLS
-0.04	6 of 6	0 of 18	KLSWSMLYESRNKNSVA	NASTRMS	QQYHRLPLS
0.02	6 of 6	0 of 18	KWSMLVMGESRNKNSVA	NASTRES	QQYHRLPLS
2.77	3 of 6	0 of 18	NFSQMVLTGSTLRNSVA	HASTRFE	QQYHRLPLI
3.23	2 of 6	0 of 18	KSSQSVFYESRNKNSVA	WGSTRES	QLYHRLPLS
1.57	2 of 6	0 of 18	RLSASQGIQSVERNSVA	QNSTREE	QQYDHLPLS

Excerpt, the first 11 entries:

| CDR-L1 | CDR-L2 | CDR-L3 | mean log10 Kd (nM) | replicates with signal | control signals |
|---|---|---|---|---|---|
| IISQSMIYESATHNSIA | QTSTREE | QQYHHLPLS | 0.45 | 6 of 6 | 0 of 18 |
| KVSQSTLYEDGNKNSVA | NASVRES | QQYHRLPLS | 0.90 | 6 of 6 | 2 of 18 |
| KLWAYLQGLERNMQNIA | DGIYRVT | QQYDRLPLS | 1.33 | 6 of 6 | 1 of 18 |
| KIRVNQYMQSEMESNIA | GTSVRHS | QQYFHLPLT | 0.40 | 6 of 6 | 1 of 18 |
| KVQQSMEYESRNKNSVA | EASDRES | QDYHRLPLW | 1.63 | 6 of 6 | 1 of 18 |
| KIGGVTNGISRNKNSVA | EQSTREK | QQYNRLPLS | 0.25 | 6 of 6 | 1 of 18 |
| KSSFSVLYESHNKNSVA | NASTRMS | QQYHRLPLS | 1.30 | 6 of 6 | 0 of 18 |
| HMSALTLGGMRARNSVA | QMTTREN | QQYDRLPLV | 0.70 | 6 of 6 | 1 of 18 |
| KSSQSVLREGGNGNSVA | EASTRES | QQYHLLPLS | 0.95 | 6 of 6 | 0 of 18 |
| TISQVMNTLERHGNNVA | DLENRED | QQYFRLPLS | 0.90 | 3 of 6 | 0 of 18 |
| LSPQSVLYESRNKNSVA | WASTRES | QQYHRIPLS | nd | 0 of 6 | 0 of 18 |

Values of this round are not directly comparable with the first-round values of the same sequences. In the paper, a design with two or fewer of six values counts as a poor binder. Of ten entries with the parent sequence, four were seen in most replicates (averages 0.34 to 2.37), three in one and three in none, so single entries are noisy. Empty control strains, which show no peptide, gave a signal in 4% of pairings with all light chain designs; the median was 2.64 and 95% of these signals were weaker than 1.59. No background was subtracted. For each scFv, signals with the empty controls are counted beside the result.

Reference: Li et al. 2023, doi:10.1038/s41467-023-39022-2. File: FLAb, binding data.